Data on one molecule can be found in patent publication US20060160114A1, “Reagents and methods for predicting drug resistance” (Oncotech, Inc., priority 2004, published 2006).

This test relates to tumor cells from patient tumor samples. The test can be described thus: Extreme Drug Resistance (EDR) assay, tritiated thymidine incorporation in soft agarose culture. The note with it: of the sixteen tumors that were EDR to paclitaxel. In kind it is cell-based, human. On the procedure:
In the practice of this assay, tumor cells are taken from a cancer biopsy and exposed to cancer chemotherapeutics in culture. During the culture period, radioactive thymidine is added, which is incorporated into the DNA of growing and dividing cancer cells (which are thus resistant to the cytostatic or cytotoxic effects of the cancer chemotherapeutic). Tritiated thymidine is not incorporated into cells that are sensitive to the drug and reduce or suspend growth and division in response to the drug. […] By measuring the amount of radioactivity in a sample, the assay determines the relative resistance of an individual patient's cancer cells to a number of different chemotherapies. […]
The EDR assay is an agarose-based culture system, using tritiated thymidine incorporation to define in vitro drug response. […] The radioactivity trapped on the filters was counted with an LS-6500 scintillation Counter (Beckman, Fullerton, Calif.). […] Detectable radioactivity for this group was considered non-specific background related to debris trapping of tritiated thymidine on the filter. After subtracting background control values, percent control inhibition (PCI) of proliferation was determined by comparing thymidine incorporation by the treatment group with incorporation by the negative control group: PCI=100%×[1−(CPM treatment group/CPM control group)]. […]
For orientation: Dividing cells build labelled thymidine or BrdU into new DNA.

As for `CC(=O)O[C@@]12CO[C@@H]1C[C@H](O)[C@@]1(C)C(=O)[C@H](O)C3=C(C)[C@@H](OC(=O)[C@H](O)[C@@H](NC(=O)OC(C)(C)C)c4ccccc4)C[C@@](O)([C@@H](OC(=O)c4ccccc4)[C@H]21)C3(C)C` [docetaxel], the “number of tumors that were EDR” value is recorded as “two”.
